## scFv variants of Ab-95 (light chain) against a SARS-CoV-2 spike peptide

From the AlphaSeq antibody data of Engelhart et al. 2022 (doi:10.1038/s41597-022-01779-4), copy in the FLAb collection.

Binding partner: SARS-CoV-2 spike HR2 peptide, sequence PDVDLGDISGINAS.

Parent: Ab-95, a human scFv built as VH, the linker GGGGSGGGGSGGGGS, VL. Only the CDRs of the light chain vary.
VH: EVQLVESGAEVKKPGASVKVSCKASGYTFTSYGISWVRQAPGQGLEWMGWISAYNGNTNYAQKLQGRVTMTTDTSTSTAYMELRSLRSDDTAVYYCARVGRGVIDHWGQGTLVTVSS
VL: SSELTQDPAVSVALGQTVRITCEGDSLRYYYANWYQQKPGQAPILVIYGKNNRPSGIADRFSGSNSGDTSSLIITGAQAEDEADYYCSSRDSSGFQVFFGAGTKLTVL

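The parent was found by panning a naive human phage display library on the peptide. In library AAYL52, one, two or three CDR residues were substituted; doubles and triples were drawn at random. In AlphaSeq, yeast of one mating type display the scFv and yeast of the other type display the target. After mating in shaken culture at 30 °C for 16 h, diploids were selected and their barcode pairs sequenced. A regression on co-assayed BCL2-family reference pairs converts the normalised counts of each replicate to an apparent Kd. Mating was done three times.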

Substitutions are numbered in sequence along the VL above, starting at 1 (not Kabat). Values are log10 of the apparent Kd in nM; lower means stronger binding. A mean of the replicates is given; it leaves out those without a signal. "nd" marks a missing value. The strain was present, yet no cells mated with the target were sequenced in that replicate, which points to weak or no binding. Empty control strains, which show no peptide, gave a signal in 28% of pairings with library AAYL52; the median was 3.91 and 95% of these signals were weaker than 2.90. No background was subtracted. In this assay the parent's reference entry averaged 2.31; its copy inside this library read 2.25.

| changes | replicates, log10 nM | log10 Kd (nM), mean |
|---|---|---|
| A32P S93A F98G | 2.82 2.33 2.61 | 2.58 |
| L27W Y30N N33T | 1.33 1.50 0.62 | 1.15 |
| A32K D91N F98H | 3.28 3.96 nd | 3.62 |
| R53T S88Q S92F | 5.36 nd 4.16 | 4.76 |
| R53N S89T F95M | 2.21 2.23 2.21 | 2.21 |
| G49N R90D S92N | nd 3.10 3.62 | 3.36 |
| P54M D91K S93Q | nd 4.04 2.44 | 3.24 |
| R28W P54H S92G | nd 5.56 nd | 5.56 |
| G49F R53W F98L | 3.44 4.75 nd | 4.09 |
| E23D L27I Y31P | 2.38 2.45 1.63 | 2.15 |
| N33F Q96T V97M | nd nd nd | nd |
| L27D K50E N52C | 4.48 4.94 nd | 4.71 |
| R28Q S55N S92A | 1.86 1.62 1.49 | 1.66 |
| E23Q S92G S93F | 2.27 2.48 2.23 | 2.33 |
| Y29N G49W R90A | 5.26 2.93 nd | 4.10 |
| Y30C S93R G94W | 3.26 nd nd | 3.26 |
| N51G D91K S93D | 2.84 2.80 2.71 | 2.78 |
| G24W G49C K50C | 4.40 nd nd | 4.40 |
| R28C S89V S93D | 4.51 nd nd | 4.51 |
| N33V S55I Q96T | 4.39 5.94 nd | 5.17 |
| G24D G49Y R90K | nd nd nd | nd |
| N33G K50P S55W | 4.53 5.05 3.64 | 4.41 |
| Y30D F95P Q96L | nd nd nd | nd |
| D25P S89N | 2.49 2.66 2.30 | 2.48 |
| G49H R53K F98V | 3.52 3.58 nd | 3.55 |
| N51G P54I S55E | 3.00 2.83 2.45 | 2.76 |
| E23G Y31N G94P | nd 3.41 4.44 | 3.93 |
| E23C N33T F95G | 3.94 4.92 nd | 4.43 |
| D25Q Y29Q R90M | nd nd nd | nd |
| N33W G49V F98M | nd 5.17 nd | 5.17 |
| K50G P54F F95N | 3.30 2.96 2.32 | 2.86 |
| Y29E N52V G94H | 3.60 5.27 nd | 4.43 |
| R53A S88G F95W | 3.02 3.87 4.16 | 3.68 |

Extract of 5 entries:

{"changes": "G49F R53W F98L", "replicates, log10 nM": "3.44 4.75 nd", "log10 Kd (nM), mean": "4.09"}
{"changes": "G49N R90D S92N", "replicates, log10 nM": "nd 3.10 3.62", "log10 Kd (nM), mean": "3.36"}
{"changes": "R53A S88G F95W", "replicates, log10 nM": "3.02 3.87 4.16", "log10 Kd (nM), mean": "3.68"}
{"changes": "G24W G49C K50C", "replicates, log10 nM": "4.40 nd nd", "log10 Kd (nM), mean": "4.40"}
{"changes": "N33V S55I Q96T", "replicates, log10 nM": "4.39 5.94 nd", "log10 Kd (nM), mean": "5.17"}